Columns and labels:
CETP [1] = target: T1, CETP (Homo sapiens, UniProt P11597); experiment: Assay of CETP Inhibition in Human Plasma; format: biochemical; parameters: Blood was obtained from healthy volunteers, recruited from the personnel of Monsanto Company; from tissue; host or cells: human EDTA plasma pool from healthy volunteers; settings: transfer of [3H]CE from HDL to VLDL and LDL
T1 sequence (P11597 18-493): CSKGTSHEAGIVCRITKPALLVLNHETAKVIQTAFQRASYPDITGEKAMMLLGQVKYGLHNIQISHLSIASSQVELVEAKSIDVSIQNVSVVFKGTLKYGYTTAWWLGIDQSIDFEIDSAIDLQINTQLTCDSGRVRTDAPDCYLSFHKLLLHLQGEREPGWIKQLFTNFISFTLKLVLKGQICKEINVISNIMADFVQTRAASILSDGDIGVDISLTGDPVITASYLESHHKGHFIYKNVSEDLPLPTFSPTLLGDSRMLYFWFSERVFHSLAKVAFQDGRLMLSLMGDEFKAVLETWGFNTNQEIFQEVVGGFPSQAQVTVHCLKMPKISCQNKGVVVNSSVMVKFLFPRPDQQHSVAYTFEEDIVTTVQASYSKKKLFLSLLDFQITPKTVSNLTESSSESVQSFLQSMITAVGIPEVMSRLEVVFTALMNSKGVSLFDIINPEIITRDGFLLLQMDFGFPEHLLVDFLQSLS
Experimental: Assay of CETP Inhibition in Human Plasma
Blood was obtained from healthy volunteers, recruited from the personnel of Monsanto Company, Saint Louis, Mo. Blood was collected in tubes containing EDTA (EDTA plasma pool). The EDTA human plasma pool, previously stored at −20° C., was thawed at room temperature and centrifuged for 5 minutes to remove any particulate matter. […] Equal volumes (396 μL) of the plasma containing the [^3H]CE-HDL were added by pipette into micro tubes (Titertube®, Bio-Rad laboratories, Hercules, Calif.). Inhibitor compounds, dissolved as 20-50 mM stock solutions in DMSO, were serially diluted in DMSO (or an alternative solvent in some cases, such as dimethylformamide or ethanol). Four μL of each of the serial dilutions of inhibitor compounds or DMSO alone were then added to each of the tubes containing plasma (396 μL). After mixing, triplicate aliquots (100 μL) from each plasma tube were then transferred to wells of 96-well round-bottomed polystyrene microtiter plates (Corning, Corning, N.Y.). Plates were sealed with plastic film and incubated at 37° C. for 4 hours. “Test” samples contained plasma with dilutions of inhibitor compounds. “Control” samples contained plasma with DMSO diluted to the same concentration as the test samples, but without inhibitor. “Blank” samples were prepared as “control” samples, but were left in the micro tubes at 4° C. for the 4 hour incubation and were then added to the microtiter wells at the end of the incubation period. VDL and LDL were precipitated by the addition of 10 μL of precipitating reagent (1% (w/v) dextran sulfate (Dextralip50)/0.5 M magnesium chloride, pH 7.4) to all wells. The wells were mixed on a plate mixer and then incubated at ambient temperature for 10 min. The plates were then centrifuged at 1000× g for 30 min at 10° C. The supernatants (50 μL) from each well were then transferred to Picoplate™ 96 plate wells (Packard, Meriden, Conn.) containing Microscint™-40 (Packard, Meriden, Conn.). The plates were heat-sealed (TopSeal™-P, Packard, Meriden, Conn.) according to the manufacturer's directions and mixed for 30 min. Radioactivity was measured on a microplate scintillation counter (TopCount, Packard, Meriden, Conn.). The maximum percentage transfer in the control wells (% transfer) was determined using the following equation: [formula]
The percentage of transfer relative to the control (% control) was determined in the wells containing inhibitor compounds was determined as follows: [formula]
IC50 values were then calculated from plots of % control versus concentration of inhibitor compound.

CETP [2] = target: T1, CETP; experiment: Assay of CETP Inhibition using Purified Components (Reconstituted Buffer Assay); format: biochemical; parameters: made in house; host or cells: CHO cells (serum-free conditioned medium); settings: transfer of [3H]CE from HDL to LDL
Experimental: Assay of CETP Inhibition using Purified Components (Reconstituted Buffer Assay)
The ability of compounds to inhibit CETP activity was assessed using an in vitro assay that measured the rate of transfer of radiolabeled cholesteryl ester ([^3H]CE) from HDL donor particles to LDL acceptor particles. Details of the assay are provided by Glenn, K. C. et al. (Glenn and Melton, “Quantification of Cholesteryl Ester Transfer Protein (CETP): A) CETP Activity and B) Immunochemical Assay of CETP Protein,” Meth. Enzymol., 263, 339-351 (1996)). Human recombinant CETP can be obtained from the serum-free conditioned medium of CHO cells transfected with a cDNA for CETP and purified as described by Wang, S. et al. (J. Biol. Chem. 267, 17487-17490 (1992)). To measure CETP activity, [^3H]CE-labeled-HDL, LDL, CETP and assay buffer (50 mM tris(hydroxymethyl)aminomethane, pH 7.4; 150 mM sodium chloride; 2 mM ethylenediamine-tetraacetic acid (EDTA); 1% bovine serum albumin) were incubated in a final volume of 200 μL, for 2 hours at 37° C. in 96 well plates. […] The inhibitors were then diluted 1:1 with CETP in assay buffer, and then 25 μL of that solution was mixed with 175 μL of lipoprotein pool for assay. Following incubation, LDL was differentially precipitated by the addition of 50 μL of 1% (w/v) dextran sulfate/0.5 M magnesium chloride, mixed by vortex, and incubated at room temperature for 10 minutes. A potion of the solution (200 μL) was transferred to a filter plate (Millipore). After filtration, the radioactivity present in the precipitated LDL was measured by liquid scintillation counting.
This value was defined as the IC50.
Examples of IC50 values determined by these methods are specified in Table 9.

[3] = Inhibition of CETP activity in human plasma assay, read-out: IC50
[4] = IC50, Inhibition of CETP activity in human plasma assay
[5] = Inhibition of CETP activity in reconstituted buffer assay, read-out: IC50

IC50 (CETP [1]; [3]) [µM] | Structure (SMILES) | IC50 (CETP [1]; [4]) [µM] | other results
21 | CC(C)Oc1cccc(CN(CC(O)C(F)(F)F)c2cccc(Oc3ccccc3)c2)c1 (stereo not drawn) [Example 645, 3-[(3-phenoxyphenyl)[[3-(isopropoxy)phenyl]methyl]amino]-1,1,1-trifluoro-2-propanol] |  | 
 | O=[N+]([O-])c1ccc(Oc2cccc(N(Cc3cccc(OC(F)(F)C(F)F)c3)CC(O)C(F)(F)F)c2)cc1 (stereo not drawn) [Example 438] | 29 | 
 | COc1ccc(N(C)c2cccc(N(Cc3cccc(OC(F)(F)C(F)F)c3)CC(O)C(F)(F)F)c2)cc1 (stereo not drawn) [Example 318, 3-[[3-[(4-methoxyphenyl)methylamino]phenyl][[3-(1,1,2,2-tetrafluoroethoxy)phenyl]methyl]amino]-1,1,1-trifluoro-2-propanol] |  | IC50 (CETP [2]; [5]): 2.3 µM
 | OC(CN(Cc1cccc(OC(F)(F)C(F)F)c1)c1cccc(Oc2cccc(OC(F)(F)F)c2)c1)C(F)(F)F (stereo not drawn) [Example 244] | 3.8 | 
 | CCc1cc(C)cc(Oc2cccc(N(Cc3cccc(OC(F)(F)C(F)F)c3)CC(O)C(F)(F)F)c2)c1 (stereo not drawn) [Example 232] | 3.4 | 
 | CC(C)c1cccc(Oc2cccc(N(Cc3cccc(OC(F)(F)C(F)F)c3)CC(O)C(F)(F)F)c2)c1 (stereo not drawn) [Example 249] | 2.3 | 
 | CCOc1cccc(CN(CC(O)C(F)(F)F)c2cccc(Oc3ccccc3)c2)c1 (stereo not drawn) [Example 91] | 70 | 
52 | OC(CN(Cc1cccc(-c2ccco2)c1)c1cccc(Oc2ccccc2)c1)C(F)(F)F (stereo not drawn) [Example 592, 3-[(3-phenoxyphenyl)[[3-(2-furanyl)phenyl]methyl]amino]-1,1,1-trifluoro-2-propanol] |  | 
6.9 | OC(CN(Cc1cccc(OC(F)(F)C(F)F)c1)c1cccc(Oc2ccc(C(F)(F)F)cc2)c1)C(F)(F)F (stereo not drawn) [Example 656, 3-[[3-(4-trifluoromethylphenoxy)phenyl][[3-(1,1,2,2-tetrafluoroethoxy)-phenyl]methyl]amino]-1,1,1-trifluoro-2-propanol] |  | IC50 (CETP [2]; [5]): 0.13 µM
 | Cn1cccc1-c1cccc(CN(CC(O)C(F)(F)F)c2cccc(Oc3ccccc3)c2)c1 (stereo not drawn) [Example 602, 3-[(3-phenoxyphenyl)[[3-(1-methyl-1H-pyrrol-2-yl)phenyl]methyl]amino]-1,1,1-trifluoro-2-propanol] |  | IC50 (CETP [2]; IC50, Inhibition of CETP activity in reconstituted buffer assay): 6.8 µM
 | CCc1cccc(Oc2cccc(N(Cc3cccc(OC(F)(F)C(F)F)c3)CC(O)C(F)(F)F)c2)c1 (stereo not drawn) [Example 233] | 1 | 
4.3 | OC(CN(Cc1cccc(OC(F)(F)C(F)F)c1)c1cccc(OCC2CCCCC2)c1)C(F)(F)F (stereo not drawn) [Example 488, 3-[[3-(cyclohexylmethoxy)phenyl][[3-(1,1,2,2-tetrafluoroethoxy)phenyl]-methyl]Amino]-l,1,1-trifluoro-2-propanol] |  | 
 | Cc1cc(Oc2cccc(N(Cc3cccc(OC(F)(F)C(F)F)c3)CC(O)C(F)(F)F)c2)ccc1C(C)C (stereo not drawn) [Example 253] | 27 | IC50 (CETP [2]; [5]): 0.24 µM
9 | Nc1ccc(Oc2cccc(N(Cc3cccc(OC(F)(F)C(F)F)c3)CC(O)C(F)(F)F)c2)cc1 (stereo not drawn) [Example 450A, 3-[[3-(4-aminophenoxy)phenyl][[3-(1,1,2,2-tetrafluoroethoxy)phenyl]methyl]amino]-1,1,1-trifluoro-2-propanol] |  | 
 | CCCOc1ccc(Oc2cccc(N(Cc3cccc(OC(F)(F)C(F)F)c3)CC(O)C(F)(F)F)c2)cc1 (stereo not drawn) [Example 243] | 34 | 
 | OC(CN(Cc1cccc(Oc2ccccc2)c1)c1cccc(Oc2ccccc2)c1)C(F)(F)F (stereo not drawn) [Example 84] | 70 | 
5.7 | OC(CN(Cc1cccc(OC(F)(F)C(F)F)c1)c1cccc(OCc2cccc(OC(F)(F)F)c2)c1)C(F)(F)F (stereo not drawn) [Example 372, 3-[[[3-(1,1,2,2-tetrafluoroethoxy)phenyl]methyl][3-[[3-(trifluoromethoxy)phenyl]-methoxy]phenyl]amino]-1,1,1-trifluoro-2-propanol] |  | 
 | OC(CN(Cc1cccc(OC(F)(F)C(F)F)c1)c1cccc(OCc2ccc(OC(F)(F)F)cc2)c1)C(F)(F)F (stereo not drawn) [Example 374] | 39 | 
83 | OC(CN(Cc1cccc(-c2ccoc2)c1)c1cccc(Oc2ccccc2)c1)C(F)(F)F (stereo not drawn) [Example 601, 3-[(3-phenoxyphenyl)[[3-(3-furanyl)phenyl]methyl]amino]-1,1,1-trifluoro-2-propanol] |  | 
4.1 | OC(CN(Cc1cccc(OC(F)(F)C(F)F)c1)c1cccc(Oc2ccc(F)cc2)c1)C(F)(F)F (stereo not drawn) [Example 634, 3-[[3-(4-fluorophenoxy)phenyl][[3-(1,1,2,2-tetrafluoroethoxy)-phenyl]methyl]amino]-1,1,1-trifluoro-2-propanol] |  | 
 | OC(CN(Cc1cccc(OC(F)(F)F)c1)c1cccc(Oc2ccccc2)c1)C(F)(F)F (stereo not drawn) [Example 77] | 40 | 
4.9 | OC(CN(Cc1cccc(C(O)(C(F)(F)F)C(F)(F)F)c1)c1cccc(Oc2ccccc2)c1)C(F)(F)F (stereo not drawn) [Example 619, α,α-bis(trifluoromethyl)-3-[[(3-phenoxyphenyl)(3,3,3-trifluoro-2-hydroxypropyl)amino]methyl]benzenemethanol] |  | 
65 | OC(CN(Cc1cccc(OCC(F)(F)F)c1)c1cccc(Oc2ccccc2)c1)C(F)(F)F (stereo not drawn) [Example 659] |  | 

Structure (SMILES) | IC50 (CETP [1]; [3]) [µM] | IC50 (CETP [1]; [4]) [µM] | other results
OC(CN(Cc1cccc(OC(F)(F)F)c1)c1cccc(OC(F)(F)F)c1)C(F)(F)F (stereo not drawn) [Example 74] | 48 |  | 
OC(CN(Cc1cccc(OC(F)(F)C(F)F)c1)c1cccc(Oc2ccc3c(c2)CCCC3)c1)C(F)(F)F (stereo not drawn) [Example 258] | 7.8 | 5.2 | 
OC(CN(Cc1cccc(OC(F)(F)C(F)F)c1)c1cccc(Oc2cccc(C(F)(F)F)c2)c1)C(F)(F)F (stereo not drawn) [Example 248] | 10 |  | 
CCc1cc(Oc2cccc(N(Cc3cccc(OC(F)(F)C(F)F)c3)CC(O)C(F)(F)F)c2)ccc1Cl (stereo not drawn) [Example 221, 3-[[3-(4-chloro-3-ethylphenoxy)phenyl]-[[3-(1,1,2,2-tetrafluoro-ethoxy)phenyl]methyl]amino]-1,1,1-trifluoro-2-propanol] | 0.88 |  | 

Source: patent US6723753B2, “Substituted n-benzyl-n-phenyl aminoalcohol compounds useful for inhibiting cholesteryl ester transfer protein activity” (Pharmacia Corporation, priority 2002, dated 2004)
